# Screening data from PubChem.
# GLP-1R inv ag: GLP-1 receptor (human) inverse agonism; P43220; HEK293 GLP-1R CRE-luciferase, luminescence, 24 h; GLP-1R form is constitutively active; Potency, µM (titrated, usually from 38.3 µM), without a hit: at the highest dose activity change, negative = inhibition, hits mostly inhibitors; 1.6% of 410,000 active; note: potency is the fitted concentration of half-maximal effect; % is set by controls: 0 for no effect and ±100 for the full control effect; nearly all actives have a fitted effect of over 55% in size
#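 Using stably transfected HEK293 (constitutively active GLP-1R, cAMP-luciferase reporter), compounds were incubated 24 hr and luciferase measured by luminescence.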
# PTHR1 ag: agonists of human PTHR1 parathyroid hormone receptor | 0.075% of 410,000 active | AID 743266 | Potency, µM (series often up to 115 µM), for inactives: at the top dose activation, most hits filed as activators | Q03431 | HEK293 GP2 PTHR1 cells, GloSensor cAMP luminescence, 1 h; note: potency is the fitted concentration of half-maximal effect; nearly all actives have a fitted effect of over 55% in size
#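 HEK-293-derived GP2 cells expressing PTHR1 and a GloSensor cAMP reporter, 3,000/well, plated overnight, given luciferin plus IBMX (each 0.5 mM as added) for 1 h at 37 °C, then compound for 1 h at 37 °C. Luminescence was read after 15 min at room temperature.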
# Pin1 inhibitor: blocks the human prolyl isomerase Pin1; 0.009% of 390,000 active; Potency, µM (top dose mostly 115 µM), without a hit: top-dose activity, negative = inhibition, actives largely listed as inhibitors; AID 504891; Q13526; Pin1 FP peptide displacement, HiFluor488, 10 min; active = well fitted inhibition curve with a large enough effect in the polarisation, with a control signal flat, not every such curve was filed as active; inconclusive = small, poorly fitted or top-dose-only effect, or effect the other way, or a change in a side signal; inactive = no such curve, though single readings can be large or run the other way; the % refers to the polarisation; note: potency is the fitted concentration of half-maximal effect; % is set by controls: 0 for no effect and ±100 for the full control effect
# miR-21 reporter: raises the signal of a miR-21 reporter | HeLa miR-21 FLuc reporter, luciferase, 48 h | Potency, µM (doses to about 38.3 µM), for the others: at the highest dose reporter change, positive = more light | 340,000 tested, under 10 active | AID 2288; active = well fitted rising curve with a large enough effect; inconclusive = small, poorly fitted or top-dose-only effect; inactive = no such curve, though single readings can be large or run the other way;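 also: % of control where 0% means no effect; miR-21 action dims this reporter so a rising signal means less miR-21 action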
#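 Using DMEM plus 10% FBS, HeLa miR-21-FLuc cells are incubated with test compounds (final up to about 40uM) for 48 hours; firefly luciferase signal is then imaged following reagent-mediated lysis.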
# HEK293 tox: cytotoxicity counter-screen for GLP-1 receptor inverse agonists. 0.13% of 410,000 active. Potency, µM (top dose mostly 38.3 µM), without a hit: at the highest dose activity change, negative = inhibition, hits mostly inhibitors. HEK293 cAMP-luciferase reporter cells, luminescence, 24 h;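 note: loss of luciferase light is scored as toxicity; potency is the fitted concentration of half-maximal effect; % is set by controls: 0 for no effect and ±100 for the full control effect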
#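 Step one: seed cells (200 cells/uL, DMEM with 10% Nu serum, 1% pen-strep). Step two: 12-hour incubation at 37 deg C. Step three: pin 23 nL compound, incubate 24 hr. Step four: add luciferase reagent, read luminescence 12 min later.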
# GLP-1R agonist: agonists of human GLP-1 receptor; HEK293 GLP-1R CRE-luciferase, luminescence, 4-6 h; cells express a hypersensitive GLP-1R form; Potency, µM (titrated, usually from 45.6 µM), for inactives: at the top dose activation, actives largely listed as activators; 0.007% of 380,000 active; AID 624172; note: potency is the fitted concentration of half-maximal effect; % of control where 0% means no effect
# * = called active by the depositor; i = inactive; ? = inconclusive; . = no result given; [ ] = another dose, or the depositor's remark. Compounds with a hit are over-represented: about 1.7% of the library has one in this group of screens. Unless noted, calls come from the whole dose curve; as a rule, active = well fitted curve in the direction sought with a large enough effect; inconclusive = small, poorly fitted or top-dose-only effect, or another doubt; inactive = no such curve, though single readings can be large; an effect the other way counts as inactive or inconclusive.
1	O=C1[C@H]2[C@@H](c3ccc(C(F)(F)F)cc3)N[C@]3(CCCN(Cc4ccccc4)C3=O)[C@H]2C(=O)N1Cc1ccccc1
2	CCN1C(=O)[C@H]2[C@@H](c3ccc(C(F)(F)F)cc3)N[C@]3(CCCN(Cc4ccc(Cl)cc4)C3=O)[C@H]2C1=O
3	COc1cccc(C2c3c(ncn(-c4ccccc4Br)c3=N)Oc3ccc4ccccc4c32)c1 (stereo not given)
4	CCCCN(CCCNC(=O)CN1N=C(c2ccc(C)cc2)CCC1=O)c1ccccc1
5	CCCCNS(=O)(=O)c1ccc(NC(=O)C(Sc2ccccc2)c2ccccc2)cc1 (stereo not given)
6	CCC(C)NS(=O)(=O)c1ccc(NC(=O)C(Sc2ccccc2)c2ccccc2)cc1 (stereo not given)
7	COc1ccc(C(=O)NCC(=O)OCC(=O)c2ccc3ccccc3c2)cc1
8	CN1CCN(c2oc(-c3ccc(OCc4ccc(Cl)cc4)cc3)nc2C#N)CC1
9	CCCCN(Cc1ccccc1)c1ncnc2nc[nH]c12
10	CCCCN(CCCC)c1ncnc2nc[nH]c12

compound no. | 1 | 2 | 3 | 4 | 5 | 6 | 7 | 8 | 9 | 10
GLP-1R inv ag | 11.2µM* | 10µM* | . | 12.6µM* | 4.47µM* | ? | . | . | ? | 4.47µM*
PTHR1 ag | -30.2% | -19.6% | . | -15.7% | -5.1% | -7.9% | . | . | -93.9% | i
Pin1 inhibitor | . | . | 17.6% | ? | 5.0% | 25.8% | 8.7% | 0.1% | 6.2% | -8.1%
miR-21 reporter | . | . | . | 24.0% | 28.8% | ? | . | . | -39.9% | 19.7%
HEK293 tox | -0.4% | 4.6% | . | -5.2% | -11.8% | 8.6%[1.53 µM] | . | . | -1.7% | -8.1%
GLP-1R agonist | -5.6% | -5.1% | . | . | -5.0% | -5.1% | . | . | 9.3% | 7.9%

# Record cards, as listed above:
# CCC(C)NS(=O)(=O)c1ccc(NC(=O)C(Sc2ccccc2)c2ccccc2)cc1 (stereo not given) as listed: GLP-1R inv ag = ?; PTHR1 ag = -7.9%; Pin1 inhibitor = 25.8%; miR-21 reporter = ?; HEK293 tox = 8.6%[1.53 µM]; GLP-1R agonist = -5.1%
# CCCCNS(=O)(=O)c1ccc(NC(=O)C(Sc2ccccc2)c2ccccc2)cc1 (stereo not given) as listed: GLP-1R inv ag = 4.47µM*; PTHR1 ag = -5.1%; Pin1 inhibitor = 5.0%; miR-21 reporter = 28.8%; HEK293 tox = -11.8%; GLP-1R agonist = -5.0%

# Next entries follow:
11	Cc1ccc(-c2[nH]ncc2CNCc2ccc(CN(C)C)cc2)cc1
12	C/C(=N/NC(=O)c1ccc(C(C)(C)C)cc1)c1ccccn1
13	C/C(=N\NC(=O)C(c1ccccc1)c1ccccc1)c1ccc(O)cc1
14	C/C(=N\NC(=O)C(c1ccccc1)c1ccccc1)c1ccccn1
15	CCOc1ccc(-n2nc3ccc(NC(=O)c4ccc(-c5cccc(Cl)c5)o4)cc3n2)cc1
16	O=C1CCc2cc(S(=O)(=O)Nc3ccncc3)ccc2N1
17	CN(C)CCCn1c(SCC(=O)Nc2nc(-c3cccc(Br)c3)cs2)nc2ccccc2c1=O
18	O=C(CSc1nc2ccccc2[nH]1)Nc1nc(-c2cccc(Br)c2)cs1
19	CC1(Cc2ccccc2OC(F)(F)F)C(=O)Nc2cc(-c3ccccc3Cl)ccc21 (stereo not given)
20	CC1(Cc2ccccc2Cl)C(=O)Nc2cc(-c3ccccc3Cl)ccc21 (stereo not given)

compound no. | 11 | 12 | 13 | 14 | 15 | 16 | 17 | 18 | 19 | 20
GLP-1R inv ag | . | 2.51µM* | -25.3% | 2.82µM* | 0.2% | . | 11.2µM* | -7.7% | 5.62µM* | ?
PTHR1 ag | . | -21.3% | -33.9% | i | -0.8% | . | i | i | -81.0% | -71.5%
Pin1 inhibitor | 2.1% | -2.8% | ? | -0.9% | 16.3% | 1.8% | 16.5% | -4.1% | . | .
miR-21 reporter | . | . | -0.7% | 5.7% | 6.9% | . | -17.1% | -31.2% | . | .
HEK293 tox | . | ? | 6.9% | ? | 1.2% | . | ? | 63.4% | ? | -21.7%
GLP-1R agonist | . | ? | -6.2% | -10.0% | . | . | 10.5% | 0.3% | 5.3% | -1.7%

21	COc1cc(F)c(S(=O)(=O)N2CCCN(S(=O)(=O)c3cccc(NC(C)=O)c3)CC2)c(F)c1
22	O=C(C1CCN(CCCc2ccccc2)CC1)N(CCc1ccccc1)Cc1ccccc1
23	CN[C@H]1C[C@H]2c3[nH]c4ccc(-c5cccc(C)c5)cc4c3CCN2C[C@H]1[C@H](C)O
24	COc1ccc(NC(=O)N(C)[C@H]2C[C@H]3c4[nH]c5ccc(-c6ccc(OC)cc6)cc5c4CCN3C[C@H]2[C@H](C)O)cc1
25	CN[C@H]1C[C@H]2c3[nH]c4ccc(-c5ccc(OC)cc5)cc4c3CCN2C(=O)[C@H]1[C@H](C)O
26	COc1cccc(CNC(=O)c2cnc(N3CCCC3)nc2C)c1
27	CC(C)CCCCCCNC(=S)Nc1ccc(S(=O)(=O)N2CCOCC2)cc1
28	O=S(=O)(c1ccc(NC(=S)Nc2ccccc2)cc1)N1CCOCC1
29	O=C(O)c1ccc(N=N/C(=N\Nc2ccc(C(=O)O)cc2)c2ccccc2)cc1
30	Brc1ccc(N/N=C(/N=Nc2nn[nH]n2)c2ccccc2)cc1

compound no. | 21 | 22 | 23 | 24 | 25 | 26 | 27 | 28 | 29 | 30
GLP-1R inv ag | . | 10µM* | 11.2µM* | 7.08µM* | 5.62µM* | 12.8% | 3.55µM* | 0.8% | 26.1% | 1.26µM*
PTHR1 ag | . | -15.7% | 0.8% | 10.2% | -16.5% | -17.1% | -41.7% | i | -16.6% | -44.6%
Pin1 inhibitor | 1.0% | -4.3% | . | . | . | 7.9% | -12.3% | 0.9% | ? | .
miR-21 reporter | . | 19.1% | . | . | . | 1.7% | ? | -4.1% | . | ?
HEK293 tox | . | ? | ? | ? | ? | 1.0% | ? | -19.6% | -9.7% | ?
GLP-1R agonist | . | -1.7% | -5.8% | -3.1% | -4.5% | . | -8.7% | 8.8% | -1.9% | 8.6%

31	CC1CCN(S(=O)(=O)c2cn(CC(=O)Nc3ccc(F)c(Cl)c3)c(=O)c3ccccc23)CC1
32	CC1(C)CC(=O)C2=C(C1)NC(Nc1nc3ccccc3o1)=NC2c1ccccc1 (stereo not given)
33	Cc1sc2ncn(CCn3cnc4sc(C)c(C)c4c3=O)c(=O)c2c1C
34	O=C(Nc1ccc(F)cc1)c1cc(S(=O)(=O)Nc2ccc(F)cc2)cs1
35	COc1cccc(/C=N/NC(=O)c2ccoc2C)c1O
36	Cc1[nH]c2ccccc2c1C(=O)CSc1ccc(Cl)cc1
37	Cc1[nH]c2ccccc2c1C(=O)CN1C(=O)NC(C)(c2ccc(Cl)cc2Cl)C1=O (stereo not given)
38	O=[N+]([O-])c1cnc(Sc2ccncn2)s1
39	O=C(c1ccccc1)C1OC1C(=O)c1ccccc1 (stereo not given)
40	CC1C=CC(C)C(C(=O)c2ccccc2)C1C(=O)c1ccccc1 (stereo not given)
41	Cc1nc(-c2ccc([S+](=O)([O-])N3CCN([S+](=O)([O-])c4c(F)cccc4F)CC3)s2)cs1
42	Cc1cc(N2CCN(Cc3nc(-c4ccc(Cl)cc4)oc3C)CC2)cc(C)n1
43	COc1ccc(N(CC(=O)Nc2cc(Cl)ccc2OC)S(=O)(=O)c2c(C)noc2C)cc1

compound no. | 31 | 32 | 33 | 34 | 35 | 36 | 37 | 38 | 39 | 40 | 41 | 42 | 43
GLP-1R inv ag | ? | . | 5.01µM* | 10µM* | 1.26µM* | 15.9% | 12.6µM* | ? | ? | 12.6µM* | . | 1µM* | 4.47µM*
PTHR1 ag | -42.3% | . | -18.3%[57.5 µM] | i | -61.3% | -13.2% | i | -64.0% | -22.2% | -17.1% | . | -29.6% | -2.8%
Pin1 inhibitor | 24.0% | -1.4% | 19.3% | 2.1% | -3.3% | ? | 16.7% | -5.5% | 3.0% | . | 7.6% | 1.1% | 9.4%
miR-21 reporter | 29.6% | . | 0.8% | 23.1% | 4.4% | -11.9% | 24.0% | ? | . | . | . | ? | 26.4%
HEK293 tox | 1.2% | . | -10.6% | -29.9% | -41.0% | 6.4% | ? | 2.82µM* | -24.4% | 6.6% | . | ? | -25.7%
GLP-1R agonist | 4.5% | . | -0.9% | -17.3% | 3.2% | 0.9% | 17.1% | -6.6% | -2.0% | 5.7% | . | 7.6% | 9.8%
